Data: ChEMBL document CHEMBL1811898, “Discovery and structure-activity relationships of modified salicylanilides as cell permeable inhibitors of poly(ADP-ribose) glycohydrolase (PARG)” (J Med Chem, 2011)

Chains of the proteins cited; added tags and fusions are not shown.
UniProt P09874, whole entry: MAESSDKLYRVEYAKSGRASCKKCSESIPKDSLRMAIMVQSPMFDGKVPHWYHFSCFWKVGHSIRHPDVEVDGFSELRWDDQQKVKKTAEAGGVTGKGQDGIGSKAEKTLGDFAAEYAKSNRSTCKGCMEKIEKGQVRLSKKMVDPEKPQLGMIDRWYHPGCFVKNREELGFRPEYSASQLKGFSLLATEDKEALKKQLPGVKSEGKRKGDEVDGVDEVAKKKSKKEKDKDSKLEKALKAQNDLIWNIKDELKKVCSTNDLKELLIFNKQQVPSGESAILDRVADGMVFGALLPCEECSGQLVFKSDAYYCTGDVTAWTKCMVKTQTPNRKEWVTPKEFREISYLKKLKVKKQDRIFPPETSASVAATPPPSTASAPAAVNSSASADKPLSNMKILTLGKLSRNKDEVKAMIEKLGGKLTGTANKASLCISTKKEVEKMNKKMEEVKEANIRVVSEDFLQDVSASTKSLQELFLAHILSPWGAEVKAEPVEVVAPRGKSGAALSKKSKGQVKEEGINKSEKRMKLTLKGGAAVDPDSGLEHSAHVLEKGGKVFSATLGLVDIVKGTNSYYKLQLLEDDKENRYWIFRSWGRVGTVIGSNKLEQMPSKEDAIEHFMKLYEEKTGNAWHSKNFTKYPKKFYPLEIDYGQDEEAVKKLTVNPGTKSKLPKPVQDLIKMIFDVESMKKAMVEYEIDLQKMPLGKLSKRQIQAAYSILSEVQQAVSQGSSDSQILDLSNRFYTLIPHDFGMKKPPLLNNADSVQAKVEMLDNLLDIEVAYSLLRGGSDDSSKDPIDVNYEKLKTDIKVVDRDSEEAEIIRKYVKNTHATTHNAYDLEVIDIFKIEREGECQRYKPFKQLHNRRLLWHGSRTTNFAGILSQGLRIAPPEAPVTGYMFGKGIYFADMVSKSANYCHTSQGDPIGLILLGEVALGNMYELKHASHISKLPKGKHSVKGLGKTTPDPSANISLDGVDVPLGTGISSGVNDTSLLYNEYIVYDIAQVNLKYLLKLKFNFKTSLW

Molecular target: Poly [ADP-ribose] polymerase 1 (Homo sapiens, UniProt P09874)
Experiment: Inhibition of PARP-1 using [32P]-NAD+ after 15 mins

An IC50 of 22 µM was found for `O=C(Nc1cc(Cl)ccc1Oc1ccc2ccccc2c1Cl)c1cc(Cl)cc(Br)c1O` in this work.
